# From PMC4234672, “β-Arrestin-Dependent Deactivation of Mouse Melanopsin” (PLoS ONE, 2014)
# Molecular target: T1, mouse melanopsin-1D4 (mouse, UniProt Q9QXZ9-1 1-521)
# T1 construct: Reconstituted in the cells with 20 µM 9-cis retinal; light exposure leads to phosphorylation of the C-tail in the cells; also called wildtype melanopsin-1D4
# T1 sequence (looked up): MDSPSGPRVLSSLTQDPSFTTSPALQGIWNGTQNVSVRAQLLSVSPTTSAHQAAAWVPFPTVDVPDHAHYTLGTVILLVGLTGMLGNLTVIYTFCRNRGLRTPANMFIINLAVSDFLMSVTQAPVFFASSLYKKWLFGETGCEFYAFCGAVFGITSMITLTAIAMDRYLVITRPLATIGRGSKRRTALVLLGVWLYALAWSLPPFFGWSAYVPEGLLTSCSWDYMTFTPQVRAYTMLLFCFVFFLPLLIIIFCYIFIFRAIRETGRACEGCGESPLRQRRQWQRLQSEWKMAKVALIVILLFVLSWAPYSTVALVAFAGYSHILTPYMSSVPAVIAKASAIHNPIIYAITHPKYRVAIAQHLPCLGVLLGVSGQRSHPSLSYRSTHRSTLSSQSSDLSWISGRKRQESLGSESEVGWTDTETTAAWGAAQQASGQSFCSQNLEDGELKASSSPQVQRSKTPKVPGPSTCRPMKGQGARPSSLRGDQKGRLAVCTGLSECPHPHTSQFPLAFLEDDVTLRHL
# Assay: cross-linking + co-IP; β-arrestin stable HEK293 lines transfected with melanopsin-1D4 or phosphonull-1D4; 20 µM 9-cis retinal 1 h in the dark; light-exposed (bright white light, 30 min, 20°C) or dark-adapted; DSP cross-linking in the cells; solubilised in PBS with 1% dodecyl maltoside; 1D4 sepharose beads overnight 4°C; eluted with 50 mM DTT; blots for β-arrestin 1 and β-arrestin 2
# Conditions: partners not purified
binder,measurement,value
"rat β-arrestin 1 (natural protein, UniProt P29066 1-418, looked up, also called β-arr1; arrestin 2) MGDKGTRVFKKASPNGKLTVYLGKRDFVDHIDLVDPVDGVVLVDPEYLKERRVYVTLTCAFRYGREDLDVLGLTFRKDLFVANVQSFPPAPEDKKPLTRLQERLIKKLGEHAYPFTFEIPPNLPCSVTLQPGPEDTGKACGVDYEVKAFCAENLEEKIHKRNSVRLVIRKVQYAPERPGPQPTAETTRQFLMSDKPLHLEASLDKEIYYHGEPISVNVHVTNNTNKTVKKIKISVRQYADICLFNTAQYKCPVAMEEADDTVAPSSTFCKVYTLTPFLANNREKRGLALDGKLKHEDTNLASSTLLREGANREILGIIVSYKVKVKLVVSRGGLLGDLASSDVAVELPFTLMHPKPKEEPPHREVPESETPVDTNLIELDTNDDDIVFEDFARQRLKGMKDDKDEEDDGTGSPHLNNR","fold increase in co-precipitation, light-exposed against dark sample",6 fold
same,"fold increase in co-precipitation, light-exposed wildtype against light-exposed phosphonull melanopsin",5 fold
